Experimental data reported in PMC12102759 (Protein Science : A Publication of the Protein Society, 2025).

Sequences of proteins named here, by UniProt entry; tags and fusion partners are left off. Residues count along the entry.
UniProt Q9Y490, 309-401: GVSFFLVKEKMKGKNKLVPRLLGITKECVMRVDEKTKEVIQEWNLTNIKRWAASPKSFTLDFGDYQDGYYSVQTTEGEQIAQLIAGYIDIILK

Biological target: TLN1 PTB (Homo sapiens, UniProt Q9Y490)
Assay type: binding

| Substance | DMS-derived PSSM value, averaged over the two overlapping peptides | DMS-derived PSSM value of the single-substitution variant |
| --- | --- | --- |
| TDERSWVYSPLHYS(averaged) Y13K (TDERSWVYSPLHKS) | 0.05868 |  |
| TDERSWVYSPLHYS(averaged) Y13L (TDERSWVYSPLHLS) | 0.01823 |  |
| TDERSWVYSPLHYS(averaged) Y13M (TDERSWVYSPLHMS) | 0.0194 |  |
| TDERSWVYSPLHYS(averaged) Y13N (TDERSWVYSPLHNS) | 0.04146 |  |
| TDERSWVYSPLHYS(averaged) Y13P (TDERSWVYSPLHPS) | 0.02082 |  |
| TDERSWVYSPLHYS(averaged) Y13Q (TDERSWVYSPLHQS) | 0.02841 |  |
| TDERSWVYSPLHYS(averaged) Y13R (TDERSWVYSPLHRS) | 0.004782 |  |
| TDERSWVYSPLHYS(averaged) Y13S (TDERSWVYSPLHSS) | 0.09287 |  |
| TDERSWVYSPLHYS(averaged) Y13T (TDERSWVYSPLHTS) | 0.02134 |  |
| TDERSWVYSPLHYS(averaged) Y13V (TDERSWVYSPLHVS) | 0.02157 |  |
| TDERSWVYSPLHYS(averaged) Y13W (TDERSWVYSPLHWS) | 0.05954 |  |
| TDERSWVYSPLHYS(averaged) Y13Y | 0.07288 |  |
| TDERSWVYSPLHYSAQ A15A |  | 0.2053 |
| TDERSWVYSPLHYSAQ A15D (TDERSWVYSPLHYSDQ) |  | 0.07874 |
| TDERSWVYSPLHYSAQ A15E (TDERSWVYSPLHYSEQ) |  | 0.1052 |
| TDERSWVYSPLHYSAQ A15F (TDERSWVYSPLHYSFQ) |  | 0.0008689 |
| TDERSWVYSPLHYSAQ A15G (TDERSWVYSPLHYSGQ) |  | 0.01352 |
| TDERSWVYSPLHYSAQ A15H (TDERSWVYSPLHYSHQ) |  | 0.02079 |
| TDERSWVYSPLHYSAQ A15I (TDERSWVYSPLHYSIQ) |  | 0.009074 |
| TDERSWVYSPLHYSAQ A15K (TDERSWVYSPLHYSKQ) |  | 0 |
| TDERSWVYSPLHYSAQ A15L (TDERSWVYSPLHYSLQ) |  | 0.03914 |
| TDERSWVYSPLHYSAQ A15M (TDERSWVYSPLHYSMQ) |  | 0.004691 |
| TDERSWVYSPLHYSAQ A15N (TDERSWVYSPLHYSNQ) |  | 0.01181 |

| Substance | DMS-derived PSSM value, averaged over the two overlapping peptides | DMS-derived PSSM value of the single-substitution variant |
| --- | --- | --- |
| TDERSWVYSPLHYSAQ A15P (TDERSWVYSPLHYSPQ) |  | 0.07792 |
| TDERSWVYSPLHYSAQ A15Q (TDERSWVYSPLHYSQQ) |  | 0.263 |
| TDERSWVYSPLHYSAQ A15R (TDERSWVYSPLHYSRQ) |  | 0.01924 |
| TDERSWVYSPLHYSAQ A15S (TDERSWVYSPLHYSSQ) |  | 0.02779 |
| TDERSWVYSPLHYSAQ A15T (TDERSWVYSPLHYSTQ) |  | 0.03217 |
| TDERSWVYSPLHYSAQ A15V (TDERSWVYSPLHYSVQ) |  | 0.005886 |
| TDERSWVYSPLHYSAQ A15W (TDERSWVYSPLHYSWQ) |  | 0.08214 |
| TDERSWVYSPLHYSAQ A15Y (TDERSWVYSPLHYSYQ) |  | 0.002752 |
| TDERSWVYSPLHYSAQ D2A (TAERSWVYSPLHYSAQ) |  | 0.3332 |
| TDERSWVYSPLHYSAQ D2D |  | 0.1736 |
| TDERSWVYSPLHYSAQ D2E (TEERSWVYSPLHYSAQ) |  | 0.04115 |
| TDERSWVYSPLHYSAQ D2F (TFERSWVYSPLHYSAQ) |  | 0.03606 |
| TDERSWVYSPLHYSAQ D2G (TGERSWVYSPLHYSAQ) |  | 0.0564 |
| TDERSWVYSPLHYSAQ D2H (THERSWVYSPLHYSAQ) |  | 0.05615 |
| TDERSWVYSPLHYSAQ D2I (TIERSWVYSPLHYSAQ) |  | 0.003613 |
| TDERSWVYSPLHYSAQ D2K (TKERSWVYSPLHYSAQ) |  | 0.002514 |
| TDERSWVYSPLHYSAQ D2L (TLERSWVYSPLHYSAQ) |  | 0.03742 |
| TDERSWVYSPLHYSAQ D2M (TMERSWVYSPLHYSAQ) |  | 0.01172 |
| TDERSWVYSPLHYSAQ D2N (TNERSWVYSPLHYSAQ) |  | 0.02272 |
| TDERSWVYSPLHYSAQ D2P (TPERSWVYSPLHYSAQ) |  | 0.02385 |
| TDERSWVYSPLHYSAQ D2Q (TQERSWVYSPLHYSAQ) |  | 0.0463 |
| TDERSWVYSPLHYSAQ D2R (TRERSWVYSPLHYSAQ) |  | 0.03203 |
| TDERSWVYSPLHYSAQ D2S (TSERSWVYSPLHYSAQ) |  | 0.03884 |

| Substance | DMS-derived PSSM value, averaged over the two overlapping peptides | DMS-derived PSSM value of the single-substitution variant |
| --- | --- | --- |
| TDERSWVYSPLHYSAQ D2T (TTERSWVYSPLHYSAQ) |  | 0.01567 |
| TDERSWVYSPLHYSAQ D2V (TVERSWVYSPLHYSAQ) |  | 0.03627 |
| TDERSWVYSPLHYSAQ D2W (TWERSWVYSPLHYSAQ) |  | 0.01638 |
| TDERSWVYSPLHYSAQ D2Y (TYERSWVYSPLHYSAQ) |  | 0.01615 |
| TDERSWVYSPLHYSAQ E3A (TDARSWVYSPLHYSAQ) |  | 0.00735 |
| TDERSWVYSPLHYSAQ E3D (TDDRSWVYSPLHYSAQ) |  | 0.01286 |
| TDERSWVYSPLHYSAQ E3E |  | 0.2011 |
| TDERSWVYSPLHYSAQ E3F (TDFRSWVYSPLHYSAQ) |  | 0.08854 |
| TDERSWVYSPLHYSAQ E3G (TDGRSWVYSPLHYSAQ) |  | 0.05173 |
| TDERSWVYSPLHYSAQ E3H (TDHRSWVYSPLHYSAQ) |  | 0.0111 |
| TDERSWVYSPLHYSAQ E3I (TDIRSWVYSPLHYSAQ) |  | 0.04321 |
| TDERSWVYSPLHYSAQ E3K (TDKRSWVYSPLHYSAQ) |  | 0.03736 |
| TDERSWVYSPLHYSAQ E3L (TDLRSWVYSPLHYSAQ) |  | 0.07536 |
| TDERSWVYSPLHYSAQ E3M (TDMRSWVYSPLHYSAQ) |  | 0.0514 |
| TDERSWVYSPLHYSAQ E3N (TDNRSWVYSPLHYSAQ) |  | 0.0399 |
| TDERSWVYSPLHYSAQ E3P (TDPRSWVYSPLHYSAQ) |  | 0.00481 |
| TDERSWVYSPLHYSAQ E3Q (TDQRSWVYSPLHYSAQ) |  | 0.01068 |
| TDERSWVYSPLHYSAQ E3R (TDRRSWVYSPLHYSAQ) |  | 0.02636 |
| TDERSWVYSPLHYSAQ E3S (TDSRSWVYSPLHYSAQ) |  | 0.06118 |
| TDERSWVYSPLHYSAQ E3T (TDTRSWVYSPLHYSAQ) |  | 0.0286 |
| TDERSWVYSPLHYSAQ E3V (TDVRSWVYSPLHYSAQ) |  | 0.0174 |
| TDERSWVYSPLHYSAQ E3W (TDWRSWVYSPLHYSAQ) |  | 0.2032 |
| TDERSWVYSPLHYSAQ E3Y (TDYRSWVYSPLHYSAQ) |  | 0.02785 |

| Substance | DMS-derived PSSM value, averaged over the two overlapping peptides | DMS-derived PSSM value of the single-substitution variant |
| --- | --- | --- |
| TDERSWVYSPLHYSAQ H12A (TDERSWVYSPLAYSAQ) |  | 0.03687 |
| TDERSWVYSPLHYSAQ H12D (TDERSWVYSPLDYSAQ) |  | 0.03485 |
| TDERSWVYSPLHYSAQ H12E (TDERSWVYSPLEYSAQ) |  | 0.04351 |
| TDERSWVYSPLHYSAQ H12F (TDERSWVYSPLFYSAQ) |  | 0.04135 |
| TDERSWVYSPLHYSAQ H12G (TDERSWVYSPLGYSAQ) |  | 0.06732 |
| TDERSWVYSPLHYSAQ H12H |  | 0.2004 |
| TDERSWVYSPLHYSAQ H12I (TDERSWVYSPLIYSAQ) |  | 0.01718 |
| TDERSWVYSPLHYSAQ H12K (TDERSWVYSPLKYSAQ) |  | 0.007422 |
| TDERSWVYSPLHYSAQ H12L (TDERSWVYSPLLYSAQ) |  | 0.03602 |
| TDERSWVYSPLHYSAQ H12M (TDERSWVYSPLMYSAQ) |  | 0.04333 |
| TDERSWVYSPLHYSAQ H12N (TDERSWVYSPLNYSAQ) |  | 0.1359 |
| TDERSWVYSPLHYSAQ H12P (TDERSWVYSPLPYSAQ) |  | 0.02759 |
| TDERSWVYSPLHYSAQ H12Q (TDERSWVYSPLQYSAQ) |  | 0.1187 |
| TDERSWVYSPLHYSAQ H12R (TDERSWVYSPLRYSAQ) |  | 0.004644 |
| TDERSWVYSPLHYSAQ H12S (TDERSWVYSPLSYSAQ) |  | 0.004182 |
| TDERSWVYSPLHYSAQ H12T (TDERSWVYSPLTYSAQ) |  | 0.0817 |
| TDERSWVYSPLHYSAQ H12V (TDERSWVYSPLVYSAQ) |  | 0.08395 |
| TDERSWVYSPLHYSAQ H12W (TDERSWVYSPLWYSAQ) |  | 0.008167 |
| TDERSWVYSPLHYSAQ H12Y (TDERSWVYSPLYYSAQ) |  | 0.006924 |
| TDERSWVYSPLHYSAQ L11A (TDERSWVYSPAHYSAQ) |  | 0.03143 |
| TDERSWVYSPLHYSAQ L11D (TDERSWVYSPDHYSAQ) |  | 0 |
| TDERSWVYSPLHYSAQ L11E (TDERSWVYSPEHYSAQ) |  | 0.02353 |
| TDERSWVYSPLHYSAQ L11F (TDERSWVYSPFHYSAQ) |  | 0.02179 |
